Patent US10662411B2, “Culture method for stable proliferation of pluripotent stem cell while maintaining undifferentiated state” (AJINOMOTO CO., INC., priority 2013, dated 2020)

System: induced pluripotent stem cells (iPS cells, 201B7 strain)
Assay: Medium stabilizing effect of albumin: cell number after culture in fresh medium or medium preserved at 4° C.
Assay type: cell-based, human
Settings: albumin 2.6 g/l in E8 medium, 1 week culture
Experimental: In the following Examples, proliferation effects of various test compounds on human pluripotent stem cells were evaluated. As human pluripotent stem cells, induced pluripotent stem cells (iPS cells, 201B7 strain) purchased from iPS Academia Japan, Inc. were used, unless particularly specified. Cell culture was performed using a culture vessel (Becton, Dickinson and Company, Falcon culture petri dish or Falcon culture plate) coated with a basal lamina matrix under the conditions of 5% CO2/37° C.
Various test compounds were added to a medium having the “E8” composition (disclosed in Nature Methods, 2011, 8, 424-429, which is incorporated herein by reference in its entirety) considered at present to be the minimum composition for cultivating human pluripotent stem cells at given concentrations and used for culture, and the effects thereof were studied. […]
Human serum-derived albumin (Sigma-Aldrich Co. LLC: A1887) was added at a final concentration of 2.6 g/l, and the effect of albumin was examined by studying the cell numbers after culture when used immediately after preparation for culture or when used after preservation at 4° C. for 3 weeks after the preparation. […] Viable cell number was measured by Trypan Blue (Life Technologies: 15250-061) staining using a hemocytometer.

albumin: Human serum-derived albumin (Sigma-Aldrich Co. LLC: A1887)
cell proliferation (viable cell number after culture) (used after preservation at 4° C. for 3 weeks): obvious cell proliferation was observed | cell proliferation (viable cell number after culture) (used immediately after preparation, compared with albumin-free medium): equivalent cell proliferation was observed with or without albumin addition
